Results published in patent US20250306034A1, “Detection of Liver Disease” (Owlstone Medical Limited, priority 2022, published 2025).

Assay: Blood levels of bioproducts in NASH rat model (CDHFD vs normal diet)
Details: after oral benzyl alcohol 208 mg/Kg

O=C(O)c1ccccc1 [benzoic acid]
time after which blood concentrations reached undetectable levels in all the rats: 480 min
concentration of benzoic acid in blood, CDHFD rats compared to ND rats (ten weeks of diet): increased concentration
